Measured values as given in patent US8198321B2, “Anti-microorganism terpenic composition” (priority 2006, dated 2012).
Like-named read-outs stand apart in the source and are kept apart here.

Conditions: rabbit
[1] = 2.1 μg/milliliter intravaginal daily for 10 days
[2] = 4200 μg/milliliter intravaginal daily for 10 days

zinc ascorbo-camphorate [Third preparation]
edema (histopathology) [1]: no edema was observed | vaginal epithelium (histopathology) [1]: remained entirely intact | edema (histopathology) [2]: no edema was observed | vaginal epithelium (histopathology) [2]: remained entirely intact | vaginal irritation (1 ml of 2.1 μg/milliliter intravaginal daily for 10 consecutive days): “minimal” vaginal irritation | vaginal irritation (1 ml of 4200 μg/milliliter intravaginal daily for 10 consecutive days): “minimal” vaginal irritation
